Assay: Log D (octanol-water partition coefficient versus pH) by potentiometric titration with a Pulse instrument
Conditions: FIG. 12

Substance: dimethylamine-HPTS [HPTS-dimethylamine]
- Log D curve (octanol-water partition coefficient with pH) (pH of 9 or above): water solubility
- Log D curve (octanol-water partition coefficient with pH) (under acidic conditions): fat solubility

— patent US11300510B2, “Fluorescent sensing film for pH planar optode, preparation method and application” (NANJING UNIVERSITY, priority 2018, dated 2022)
